Literature values as cited in article PMC5618561 (International Journal of Molecular Sciences, 2017).

Conditions: patients with epilepsy; corresponds to 40–100 mg/L; cited from earlier work

For `CCCC(CCC)C(=O)O` [VPA, Valproic acid], the “therapeutic blood levels (concentration range)” value is given as 277 to 693 µM.
